The results in this text go back to PMC11833715, “Identification of a Cannabinoid Receptor 2 Allosteric Site Using Computational Modeling and Pharmacological Analysis” (ACS Pharmacology & Translational Science, 2025).

Sequences of proteins named here, by UniProt entry; tags and fusion partners are left off.
UniProt P34972, whole entry: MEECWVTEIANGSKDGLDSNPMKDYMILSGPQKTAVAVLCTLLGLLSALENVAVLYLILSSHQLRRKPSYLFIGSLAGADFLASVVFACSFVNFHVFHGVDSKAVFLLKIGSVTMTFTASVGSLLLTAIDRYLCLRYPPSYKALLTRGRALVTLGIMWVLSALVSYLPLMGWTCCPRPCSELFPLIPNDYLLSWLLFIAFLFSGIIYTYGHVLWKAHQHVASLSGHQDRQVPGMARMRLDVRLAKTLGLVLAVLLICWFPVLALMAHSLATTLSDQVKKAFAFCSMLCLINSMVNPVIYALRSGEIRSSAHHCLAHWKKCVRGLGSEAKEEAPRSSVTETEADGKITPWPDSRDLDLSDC

In this experiment the target is T1, WT CB2 (Homo sapiens, UniProt P34972).
T1 construct: expressed in transfected cells; host or cells: HEK293
The experiment can be described thus: pGlo-Sensor-22F cAMP accumulation assay, WT CB2. The experiment is classed as cell-based. The conditions noted are these: pEC50/pIC50 values, agonist dose-response on CB2, vehicle control (no Ec2la). An excerpt: Compounds were drawn using ChemDraw.
(Cyclic AMP is a second messenger, typically raised through Gs and lowered through Gi signalling.)

pEC50: −log10 of the molar value.

With `CCCCCCC(C)(C)c1cc(OC)c([C@@H]2C=C(CO)[C@@H]3C[C@H]2C3(C)C)c(OC)c1` [HU308], the pEC50 was 8.28 (Figure S2) and 7.91 (Figure S3).

In general, pEC50 refers to −log10 of the EC50, conventionally taken in molar units. A higher pEC50 goes with a small EC50.
